What was measured:
[1] = target: NS5B RNA-dependent RNA polymerase (RdRp), 2a (isolate JFH1) (Hepatitis C virus genotype 2a, UniProt Q99IB8); assay: Recombinant NS5B RNA-dependent RNA polymerase activity, genotype 2a
[2] = target: NS3 helicase/NTPase (Con1 isolate of genotype 1b) (Hepatitis C virus genotype 1b, UniProt Q9WMX2); assay: Recombinant NS3 helicase/NTPase activity; conditions: 50 µM
[3] = target: NS5B RNA-dependent RNA polymerase (RdRp), 1b (isolate Con1) (Hepatitis C virus genotype 1b, UniProt Q9WMX2); assay: Recombinant NS5B RNA-dependent RNA polymerase activity, genotype 1b; conditions: 50 µM

SMILES	inhibition of NS5B RdRp activity (primer-dependent and de novo), genotype 2a [1]	inhibition of NS3 NTPase activity [2]	inhibition of NS3 helicase activity [2]	inhibition of NS5B RdRp activity (primer-dependent and de novo), genotype 1b [3]
O=C(Cn1c(=O)ccn(CCCCCCCCOc2ccc(Br)cc2)c1=O)Nc1ccc(Oc2ccccc2)cc1 [Z401]	none of the compounds tested exhibited any notable inhibitory activity	none of the compounds tested exhibited any notable inhibitory activity	none of the compounds tested exhibited any notable inhibitory activity	none of the compounds tested exhibited any notable inhibitory activity
O=C(Cn1c(=O)ccn(CCCCCOc2ccc(Br)cc2)c1=O)Nc1ccc(Oc2ccc(Cl)cc2)cc1 [Z385]	none of the compounds tested exhibited any notable inhibitory activity	none of the compounds tested exhibited any notable inhibitory activity	none of the compounds tested exhibited any notable inhibitory activity	none of the compounds tested exhibited any notable inhibitory activity
O=C(Cn1c(=O)ccn(CCCCCCOc2ccc(Br)cc2)c1=O)Nc1ccc(Oc2ccccc2)cc1 [Z400]	none of the compounds tested exhibited any notable inhibitory activity	none of the compounds tested exhibited any notable inhibitory activity	none of the compounds tested exhibited any notable inhibitory activity	none of the compounds tested exhibited any notable inhibitory activity
